Assay: Bioavailability of SC and IT administered FSP in rats
Type: in vivo, Male Sprague-Dawley rats
Settings: rat

| Substance | f (bioavailability in % = AUCIT/AUCSC) (IT vs SC, 9.0 Units/200 μL/rat) [%] | AUC (IT, 9.0 Units/200 μL/rat) [mIU/ml.hr] | CMax (IT, 9.0 Units/200 μL/rat) [mIU/ml] | TMax (IT, 9.0 Units/200 μL/rat) [h] | AUC (SC, 9.0 Units/200 μL/rat) [mIU/ml.hr] | CMax (SC, 9.0 Units/200 μL/rat) [mIU/ml] | TMax (SC, 9.0 Units/200 μL/rat) [h] | AUC (SC, 0.9 Units/200 μL/rat) [mIU/ml.hr] | CMax (SC, 0.9 Units/200 μL/rat) [mIU/ml] | TMax (SC, 0.9 Units/200 μL/rat) [h] |
| --- | --- | --- | --- | --- | --- | --- | --- | --- | --- | --- |
| human urinary-derived FSP: FERTINORM HP 75IU (Urofollitropin) im/sc, Serono Laboratories, reconstituted solution | 21.4 | 53.63 | 4.14 | 6 | 251.3 | 10.25 | 9 |  |  |  |
| human pituitary-derived FSP: Human FSH from pituitary, Sigma, lot #34H0069 product # F 4021 [reference compound] |  |  |  |  | 420.37 | 13.1 | 4 | 94.05 | 6.6 | 8 |
